Assay results reported in article PMC13227213, “Design of strictly orthogonal biosensors for maximizing renewable biofuel overproduction” (Journal of Advanced Research, 2025).

Experiments:
[1] = molecular target: T1, BmoR WT (fusion with sfGFP) (Thauera butanivorans, UniProt A7MAQ9); assay: MicroScale Thermophoresis of sfGFP-fused BmoR in E. coli BL21(DE3) lysate supernatant, 16-point ligand dilution in assay buffer with 1 % DMSO, incubated at 37 °C for 15 min.; assay type: binding; details: n = 3
T1 construct: SUMO-BmoR-TEV-sfGFP-His fusion, E. coli BL21(DE3) lysate supernatant
T1 sequence (A7MAQ9 1-669): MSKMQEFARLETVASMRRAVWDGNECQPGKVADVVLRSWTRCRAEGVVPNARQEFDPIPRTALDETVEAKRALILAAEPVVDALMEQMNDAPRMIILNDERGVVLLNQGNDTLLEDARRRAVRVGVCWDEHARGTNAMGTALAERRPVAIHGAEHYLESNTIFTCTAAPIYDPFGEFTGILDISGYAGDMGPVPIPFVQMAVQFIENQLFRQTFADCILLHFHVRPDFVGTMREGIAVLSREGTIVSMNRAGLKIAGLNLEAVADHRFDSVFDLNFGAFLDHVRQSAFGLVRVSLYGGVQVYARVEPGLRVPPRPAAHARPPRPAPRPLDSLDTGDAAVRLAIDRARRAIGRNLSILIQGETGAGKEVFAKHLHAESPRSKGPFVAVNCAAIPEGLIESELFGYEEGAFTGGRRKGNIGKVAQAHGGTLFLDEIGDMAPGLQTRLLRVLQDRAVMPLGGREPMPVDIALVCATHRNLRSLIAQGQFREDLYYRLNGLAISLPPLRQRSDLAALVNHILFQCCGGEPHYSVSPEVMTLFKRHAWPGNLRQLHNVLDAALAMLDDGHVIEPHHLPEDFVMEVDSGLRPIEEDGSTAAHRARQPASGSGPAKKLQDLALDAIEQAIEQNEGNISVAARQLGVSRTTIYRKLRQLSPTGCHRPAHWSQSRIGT
Procedure: Plasmids pWT-SUMO-BmoR-TEV-sfGFP-His, pWT-SUMO-BmoR^M94V/A117T/F163Y/F272L-TEV-sfGFP-His, and pWT-SUMO-BmoR^M94V/W128R/F272L-TEV-sfGFP-His were individually transformed into E. coli BL21(DE3). […] Subsequently, 100 µL of the seed culture was transferred to 100 mL LB medium and grown at 37 °C until the OD600 value reached 0.8. 0.1 mM IPTG was added into the culture, and the culture was incubated at 16 °C, 170 rpm for 12–18 h. 50 mL centrifuge tubes were used to centrifuge the culture at 5,000 rpm for 15 min to collect the cell pellets. The pellets were then resuspended in 15 mL of the binding buffer, and the cells were disrupted using the ultrasonic cell crusher. The mixture was then centrifuged at 10,000 rpm for 30 min to collect the supernatant. The Kd values of the wild-type BmoR and the mutants towards four SMs were measured by the MicroScale Thermophoresis (MST, Nanotemper) from Wuhan Bio-lab Biotechnology Co., Ltd.
A 10 µL aliquot of the supernatant was diluted three folds with the assay buffer. The MST sample chamber was opened, and the tray was removed. The diluted protein sample was aspirated using a capillary and placed in the corresponding slot of the tray. The information of the protein samples and assay bugger was input, and the type of capillary was selected. The excitation power was set to “Auto”, and MST power was set to “High”. […]

BmoR WT = molecular target: T2, BmoR WT (Thauera butanivorans, UniProt A7MAQ9); assay: Whole-cell BmoR biosensor dose-response (GFP/OD600, Pbmo-gfp reporter) in 96-deep-well plates with 0-60 mM pentanols or 0-100 mM butanols, LB medium at 30 °C, fitted to the Michaelis-Menten equation.; assay type: cell-based, E. coli XL10-Gold; details: read-out: Apparent Km; n = 3
T2 construct: full-length BmoR, expressed from biosensor plasmid (PbmoR-bmoR; Pbmo-gfp) in E. coli; hexamer
T2 sequence (A7MAQ9 1-669): T1 sequence (A7MAQ9 1-669)
Procedure: (§1) The response values of the above colonies containing various BmoR mutants to n-pentanol, isopentanol, n-butanol or isobutanol were tested. The single colonies were pre-inoculated into 5 mL LB medium with 50 μg/mL carbenicillin and then cultured at 37 °C overnight. After that, 50 μL of the seed culture was transferred into 950 μL LB medium which was supplemented with appropriate antibiotics and 10 mM n-pentanol, isopentanol, n-butanol or isobutanol in 96-deep-well plates and the cultures were then left at 30 °C for 16 h. […] The excitation and emission wavelengths were set as 470 and 510 nm, respectively. The fluorescence values were normalized as the GFP/OD600 values. Besides, 1 mL of the culture was centrifuged at 5,000 rpm for 5 min. The supernatant was discarded, and the sediment was then resuspended in 2 mL of the physiological saline. 5 μL of the culture was spotted onto glass slides for fluorescence microscopy (UOP 2100). Fifteen colonies which only responded to 10 mM n-pentanol or isopentanol were screened out. The bmoRs in the 15 colonies were amplified and sequenced to identify the mutation sites. Finally, the bmoRs in the five colonies were mutated.
(§2) To obtain the response curves and measure the apparent Km values of BmoR mutants towards SMs, the pentanol concentrations in 96-deep-well plates ranged between 0 and 60 mM, and butanols concentrations ranged between 0 and 100 mM. […]

BmoR A117T/F163Y = molecular target: T3, BmoR A117T/F163Y (Thauera butanivorans, UniProt A7MAQ9, A117T/F163Y); assay type: cell-based, E. coli XL10-Gold; details: read-out: Apparent Km; n = 3
T3 construct: full-length BmoR, biosensor plasmid pWT-A117T/F163Y (PbmoR-bmoR; Pbmo-gfp)
Procedure: as §1, §2

Substance: 1-butanol [n-Butanol]
- Kd [1]: 0.00125 mM
- EC50 (BmoR WT): 7.9 mM
- EC50 (BmoR A117T/F163Y): 7.83 mM
